Experimental findings from patent US7183436B2, “Substituted 4-aminocyclohexanols” (dated 2007) are described below.

Chains of the proteins cited; added tags and fusions are not shown. Lines headed by an entry give the natural chain unless they say otherwise; changes in a name come on top.
UniProt P41146: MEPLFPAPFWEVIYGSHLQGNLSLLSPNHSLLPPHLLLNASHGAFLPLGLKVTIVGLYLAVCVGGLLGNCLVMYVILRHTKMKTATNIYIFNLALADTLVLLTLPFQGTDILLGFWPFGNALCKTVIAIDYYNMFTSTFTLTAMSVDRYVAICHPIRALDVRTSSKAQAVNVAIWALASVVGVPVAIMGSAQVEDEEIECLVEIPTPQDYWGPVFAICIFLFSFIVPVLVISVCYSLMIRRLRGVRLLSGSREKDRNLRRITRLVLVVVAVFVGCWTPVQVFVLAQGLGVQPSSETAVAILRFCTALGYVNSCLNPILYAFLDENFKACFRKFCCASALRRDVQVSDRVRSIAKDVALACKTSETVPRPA

pKi: −log10 of the molar value.

This experiment deals with ORL1 receptor (Homo sapiens, UniProt P41146). The experiment in a line: ORL1 receptor binding assay with 3H-nociceptin/Orphanin FQ. The following applies: membranes of recombinant CHO-ORL1 cells; 0.5 nM 3H-nociceptin/Orphanin FQ.

A word on the pKi: it is −log10 of the Ki, conventionally taken in molar units.

As to `CN(C)C1(c2ccccc2)CCC(O)(c2nc3ccccc3s2)CC1` (stereo not drawn), the pKi is 6.37.
Take `CN(C)C1(c2ccccc2)CCC(O)(c2csc3ccccc23)CC1` (stereo not drawn): the pKi is 8.47.
For the molecule `CN(C)C1(c2ccccc2)CCC(O)(c2cc3ccccc3n2S(=O)(=O)c2ccccc2)CC1` (stereo not drawn), the pKi is 6.96.
Turning to `CN(C)C1(c2ccccc2)CCC(O)(c2cc3ccccc3n2C)CC1` (stereo not drawn), the pKi is 7.62.
Take `CN(C)C1(c2ccccc2)CCC(O)(c2cc3ccccc3o2)CC1` (stereo not drawn): the negative-log Ki (pKi) was 7.18.
Take `CN(C)C1(c2ccccc2)CCC(O)(c2cc3ccccc3s2)CC1` (stereo not drawn): the pKi is 8.14.
